Key:
[1] = system: MDBK cells; test: Drug cytotoxicity in uninfected MDBK cells (MTS/PMS)
[2] = system: BVDV; test: Protection of MDBK cells from BVDV-induced cytopathicity (CPE reduction, MTS/PMS); type: cell-based, bovine viral diarrhea virus

Interferon-β-1a: interferon-β-1a (Avonex, Biogen Idec; or Rebif, Serono Inc.)
CC50 [1]: >1000 IU/mL | EC50 ([2]; 50% CPE reduction, MOI 0.01): >1000 IU/mL | protection of MDBK cells from BVDV-induced cytopathicity (in words) ([2]; at the concentrations tested): do not protect
